Earlier results on one molecule are cited in patent publication US12054498B2, “Heteroaromatic macrocyclic ether chemotherapeutic agents” (Nuvalent, Inc., priority 2020, dated 2024).

This series has as its system ALK-positive NSCLC. The settings on record: ALK-positive NSCLC and other cancers; cited from earlier work.

Regarding `C[C@@H](Oc1cc(-c2cnn(C3CCNCC3)c2)cnc1N)c1c(Cl)ccc(F)c1Cl` [Crizotinib, crizotinib], the median progression-free survival was 8-11 months and the overall response rate is given as 60-80%.
